Data reported in article PMC7827085 (Pharmaceutics, 2021).

Protein sequences, listed by entry. Tags and fused reporters are not part of them. Lines headed by an entry give the natural chain unless they say otherwise; changes in a name come on top.
UniProt P08183, whole entry: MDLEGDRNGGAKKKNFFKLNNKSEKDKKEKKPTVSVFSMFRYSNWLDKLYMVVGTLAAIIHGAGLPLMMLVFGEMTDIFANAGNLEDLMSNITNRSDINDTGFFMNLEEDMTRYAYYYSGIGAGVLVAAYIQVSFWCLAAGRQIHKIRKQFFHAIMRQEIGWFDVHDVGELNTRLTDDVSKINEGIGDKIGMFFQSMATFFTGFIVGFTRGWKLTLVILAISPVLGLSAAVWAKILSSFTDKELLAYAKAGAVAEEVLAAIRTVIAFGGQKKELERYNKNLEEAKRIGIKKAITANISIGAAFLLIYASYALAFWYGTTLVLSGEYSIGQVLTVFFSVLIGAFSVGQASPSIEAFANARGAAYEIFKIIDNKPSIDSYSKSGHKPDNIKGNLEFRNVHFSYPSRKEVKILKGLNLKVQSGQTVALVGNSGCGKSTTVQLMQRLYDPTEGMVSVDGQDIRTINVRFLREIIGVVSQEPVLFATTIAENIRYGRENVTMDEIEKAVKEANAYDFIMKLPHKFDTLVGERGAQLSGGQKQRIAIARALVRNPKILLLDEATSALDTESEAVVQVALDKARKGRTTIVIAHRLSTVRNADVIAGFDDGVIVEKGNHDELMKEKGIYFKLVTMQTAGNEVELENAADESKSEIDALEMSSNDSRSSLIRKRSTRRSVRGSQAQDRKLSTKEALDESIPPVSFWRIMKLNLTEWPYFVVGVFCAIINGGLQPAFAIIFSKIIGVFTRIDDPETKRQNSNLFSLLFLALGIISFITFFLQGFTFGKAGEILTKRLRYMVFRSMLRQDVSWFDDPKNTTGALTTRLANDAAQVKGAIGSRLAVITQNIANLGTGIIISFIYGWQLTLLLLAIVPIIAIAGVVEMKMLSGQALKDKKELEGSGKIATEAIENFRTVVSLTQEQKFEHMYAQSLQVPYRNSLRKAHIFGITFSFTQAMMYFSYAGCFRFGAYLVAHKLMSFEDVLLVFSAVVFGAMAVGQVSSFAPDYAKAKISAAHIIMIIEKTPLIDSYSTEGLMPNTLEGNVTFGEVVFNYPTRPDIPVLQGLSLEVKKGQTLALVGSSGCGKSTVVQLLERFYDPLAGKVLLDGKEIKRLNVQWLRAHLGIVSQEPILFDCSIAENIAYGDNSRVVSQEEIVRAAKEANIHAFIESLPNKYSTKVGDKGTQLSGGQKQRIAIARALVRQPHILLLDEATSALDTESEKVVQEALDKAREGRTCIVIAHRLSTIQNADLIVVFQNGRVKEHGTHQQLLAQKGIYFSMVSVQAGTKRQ
UniProt Q9UNQ0: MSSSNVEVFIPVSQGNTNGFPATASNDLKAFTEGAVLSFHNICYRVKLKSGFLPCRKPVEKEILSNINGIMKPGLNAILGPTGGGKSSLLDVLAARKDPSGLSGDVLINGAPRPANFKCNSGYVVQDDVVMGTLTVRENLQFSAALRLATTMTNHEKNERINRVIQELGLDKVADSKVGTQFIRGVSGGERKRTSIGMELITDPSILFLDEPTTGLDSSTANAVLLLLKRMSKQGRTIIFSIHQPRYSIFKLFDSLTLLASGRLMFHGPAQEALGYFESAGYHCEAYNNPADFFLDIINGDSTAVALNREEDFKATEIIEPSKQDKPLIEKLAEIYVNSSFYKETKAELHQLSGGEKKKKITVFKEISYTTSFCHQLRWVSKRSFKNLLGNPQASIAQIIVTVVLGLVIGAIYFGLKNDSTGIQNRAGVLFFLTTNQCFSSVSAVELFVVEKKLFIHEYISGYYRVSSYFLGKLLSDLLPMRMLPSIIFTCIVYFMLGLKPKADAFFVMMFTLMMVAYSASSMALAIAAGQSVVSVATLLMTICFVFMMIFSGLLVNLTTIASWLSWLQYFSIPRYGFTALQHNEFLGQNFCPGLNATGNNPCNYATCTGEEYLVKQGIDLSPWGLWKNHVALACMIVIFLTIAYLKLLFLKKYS
UniProt P46721: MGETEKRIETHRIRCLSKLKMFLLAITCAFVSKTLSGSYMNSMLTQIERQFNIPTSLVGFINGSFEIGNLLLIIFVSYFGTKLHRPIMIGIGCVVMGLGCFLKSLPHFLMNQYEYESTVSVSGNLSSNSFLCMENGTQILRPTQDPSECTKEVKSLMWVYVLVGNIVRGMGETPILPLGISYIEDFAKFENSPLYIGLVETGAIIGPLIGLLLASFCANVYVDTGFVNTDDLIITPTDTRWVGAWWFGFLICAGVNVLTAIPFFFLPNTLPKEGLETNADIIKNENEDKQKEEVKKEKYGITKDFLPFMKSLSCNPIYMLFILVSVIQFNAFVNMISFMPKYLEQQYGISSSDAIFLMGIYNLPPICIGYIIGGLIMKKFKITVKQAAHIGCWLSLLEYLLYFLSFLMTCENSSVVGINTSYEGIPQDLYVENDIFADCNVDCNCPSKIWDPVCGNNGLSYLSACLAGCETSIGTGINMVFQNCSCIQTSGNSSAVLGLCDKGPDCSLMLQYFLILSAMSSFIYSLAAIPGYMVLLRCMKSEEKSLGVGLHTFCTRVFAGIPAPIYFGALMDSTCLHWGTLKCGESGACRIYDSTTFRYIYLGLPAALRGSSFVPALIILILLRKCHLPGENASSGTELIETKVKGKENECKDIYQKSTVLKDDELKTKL

Key:
[1] = molecular target: T1, ABCB1/Pgp (Homo sapiens, UniProt P08183); test: ABCB1-ATPase activity in Sf9 membrane vesicles; format: biochemical; conditions: Sf9/ABCB1 membranes; 50 µM verapamil as reference activator
T1 construct: made in house; host or cells: Sf9 insect cells
Method: ABC transporter ATPase activity was measured in Sf9 membrane vesicles containing the respective human ABC transporters. For ABCG2/BCRP, the cholesterol level in the vesicles was increased to the level of mammalian cell membranes for full activity. For ABCB1/Pgp 20 μg/150 μL and for ABCG2/BCRP 10 μg/150 μL, vesicles were incubated with 3 mM Mg-ATP for 25 min at 37 °C. The test drugs were dissolved in DMSO and 1 µL was added to the samples. The ABC transporter-related ATPase activity was determined and reference activators (50 µM verapamil for ABCB1 and 5 µM quercetin for ABCG2) served as controls.
Drug-stimulated ATPase activity of the ABCB1 transporter is a well-documented functional assay employed to estimate the substrate or inhibitory features of various drugs. […] In this assay, most transported substrates show a biphasic curve: Low concentrations stimulate, while higher concentrations inhibit, the ATPase activity. In these experiments, we measured the vanadate-sensitive (ABC transporter-related) ABCB1-ATPase activity in membrane vesicles isolated from ABCB1 overexpressing Sf9 cells.

[2] = molecular target: T2, wild-type ABCG2 (Homo sapiens, UniProt Q9UNQ0); test: Hoechst 33342 dye extrusion in HeLa cells expressing wild-type ABCG2; format: cell-based; conditions: wild-type ABCG2, 0.2 µM Hoechst 33342, full inhibition by 1 µM Ko143
T2 construct: expressed in transfected cells; host or cells: HeLa (Sleeping Beauty transposon system)

[3] = molecular target: OATP1A2 (Homo sapiens, UniProt P46721); conditions: read-out: Estimated Transporter Inhibition IC50, OATP1A2 cellular assay; 0.5 µM sulforhodamine 101 uptake, 10 min, pH 7.0, A431-OATP1A2 cells; '-' = no inhibition
[4] = molecular target: ABCG2/BCRP (Homo sapiens, UniProt Q9UNQ0); test: ABCG2-ATPase activity in Sf9 membrane vesicles; format: biochemical; set-up: expressed in transfected cells; host or cells: PLB-985; conditions: Sf9/ABCG2 membranes; ivermectin, ritonavir, lopinavir at low micromolar, remdesivir at higher concentrations

ivermectin
Effect on ABCB1-ATPase activity (in words) [1]: only showed ABCB1-ATPase inhibition | Effect on Hst dye extrusion by ABCG2 in HeLa cells (in words) [2]: inhibited | IC50 [3]: 5.2 µM | Effect on baseline ABCG2-ATPase activity (in words) [4]: significantly inhibited
